In the library only some 2.2% were active in any assay of this set; here they are far more common.
miR-21 FLuc – miR-21 reporter, rising signal; Potency, µM (titrated, usually from 38.3 µM), without a hit: at the highest dose reporter change, positive = more light; AID 2288; 340,000 tested, under 10 active; HeLa miR-21 FLuc reporter, luciferase, 48 h; active = well fitted rising curve with a large enough effect; inconclusive = small, poorly fitted or top-dose-only effect; inactive = no such curve, though single readings can be large or run the other way;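 note: % of control where 0% means no effect; miR-21 action dims this reporter so a rising signal means less miR-21 action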
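Luminescence from a firefly luciferase reporter carrying a miR-21 binding site downstream, stably expressed under a CMV promoter in HeLa cells that make miR-21 endogenously, reports miRNA modulation after 48 h compound exposure up to approximately 40uM final.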
A549 tox – counter-screen for Nrf2 inhibitors: cytotoxicity in A549 cells. A549 ARE-Fluc cells, CellTiter-Fluor viability, 18-24 h. Potency, µM (top dose mostly 46 µM), for the others: top-dose activity change, negative = cytotoxicity, usual class: inhibitors. 390,000 tested, 0.16% active; also: potency is read from the fitted curve at half-maximal effect; % is scaled to controls: 0 for no effect and ±100 for the full control effect
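Cytotoxicity counterscreen: CellTiter-Fluor fluorescence was measured in A549 ARE_Fluc cells after 18-24 h of compound exposure in a concentration series. The subsequent BugLite luminescent read reports ARE-luciferase activity.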
Nrf2 activator – Nrf2 pathway activation | Potency, µM (top dose mostly 46.1 µM), for inactives: top-dose activation, actives largely listed as activators | 410,000 tested, 0.31% active | AREc32 ARE-luciferase reporter (MCF7-derived line), luminescence, 24 h; also: potency is read from the fitted curve at half-maximal effect; % of control where 0% means no effect; nearly all actives have a fitted effect of over 65% in size
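Cells of the AREc32 ARE-luciferase line are plated in OPTI-MEM containing 5% FBS and left overnight at 37 deg C. Compounds are pinned in, incubation continues 24 hr, and firefly luciferase signal is then measured.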
Nrf2 inh – blocks Nrf2 signaling; Potency, µM (series often up to 46 µM), for inactives: at the top dose activity change, negative = inhibition, most hits filed as inhibitors; A549 ARE-Fluc reporter, luciferase luminescence, 18-24 h; 360,000 tested, 2.1% active; also: potency is read from the fitted curve at half-maximal effect; % is scaled to controls: 0 for no effect and ±100 for the full control effect; nearly all actives have a fitted effect of over 60% in size
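Cells were seeded and rested 2 h, then exposed to compounds for 18-24 h. CellTiter-Fluor was read first as a viability measure. BugLite was added 15 min before the final luminescent read of ARE-luciferase activity in A549 cells.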
B2AR arrestin – beta2AR (human) beta-arrestin recruitment activity; 330,000 tested, 0.02% active; beta-arrestin recruitment to beta2AR, cell-based reporter; Potency, µM (top dose mostly 46.1 µM), for the others: at the highest dose activation, usual class: activators; P07550;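 also: potency is read from the fitted curve at half-maximal effect; 0% = DMSO controls and full agonism = EC100 isoproterenol or metaproterenol; nearly all actives have a fitted effect of over 65% in size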
The depositor's hits bear a star; ? = inconclusive; . = no result. Calls follow the shape of the dose curve; as a rule, active = well fitted curve in the direction sought with a large enough effect; inconclusive = small, poorly fitted or top-dose-only effect, or another doubt; inactive = no such curve, though single readings can be large; an effect the other way counts as inactive or inconclusive.

A first look (six entries):
Structure	miR-21 FLuc	A549 tox	Nrf2 activator	Nrf2 inh	B2AR arrestin
CN(C(=O)c1cccc(NC(=O)Cc2ccc(NC(=O)C3CCCN(C(=O)CCc4ccccc4)C3)cc2)c1)C1CCCC1 (stereo unspecified)	.	?	4%	21µM*	.
CCOC(=O)c1ccc(NC(=O)C2=C(C)Nc3nc(SCc4ccc(Cl)cc4)nn3C2c2ccc(OC)cc2)cc1 (stereo unspecified)	-4%	0%	0%	-9%	.
COc1cc(NC(=O)Cn2c(=O)ccc3cc(S(=O)(=O)N4CCCC4)ccc32)cc(OC)c1	18%	-1%	0%	.	.
CN(Cc1ccccc1)C(=O)c1ccc(NC(=O)Cc2cccc(NC(=O)C3CCCN(C(=O)CCc4ccccc4)C3)c2)cc1 (stereo unspecified)	.	-11%	5%	21µM*	-1%
CN(C(=O)c1cccc(NC(=O)Cc2ccc(NC(=O)C3CCCN(C(=O)CCc4ccccc4)C3)cc2)c1)C1CCC1 (stereo unspecified)	.	-13%	4%	16µM*	.
CN(Cc1ccccc1)C(=O)c1cccc(NC(=O)Cc2ccc(NC(=O)C3CCCN(C(=O)CCc4ccccc4)C3)cc2)c1 (stereo unspecified)	.	-2%	6%	?	.

All compounds of this part, from the first entry:
Structure	miR-21 FLuc	A549 tox	Nrf2 activator	Nrf2 inh	B2AR arrestin
CN(C(=O)c1cccc(NC(=O)Cc2ccc(NC(=O)C3CCCN(C(=O)CCc4ccccc4)C3)cc2)c1)C1CCCC1 (stereo unspecified)	.	?	4%	21µM*	.
CCOC(=O)c1ccc(NC(=O)C2=C(C)Nc3nc(SCc4ccc(Cl)cc4)nn3C2c2ccc(OC)cc2)cc1 (stereo unspecified)	-4%	0%	0%	-9%	.
COc1cc(NC(=O)Cn2c(=O)ccc3cc(S(=O)(=O)N4CCCC4)ccc32)cc(OC)c1	18%	-1%	0%	.	.
CN(Cc1ccccc1)C(=O)c1ccc(NC(=O)Cc2cccc(NC(=O)C3CCCN(C(=O)CCc4ccccc4)C3)c2)cc1 (stereo unspecified)	.	-11%	5%	21µM*	-1%
CN(C(=O)c1cccc(NC(=O)Cc2ccc(NC(=O)C3CCCN(C(=O)CCc4ccccc4)C3)cc2)c1)C1CCC1 (stereo unspecified)	.	-13%	4%	16µM*	.
CN(Cc1ccccc1)C(=O)c1cccc(NC(=O)Cc2ccc(NC(=O)C3CCCN(C(=O)CCc4ccccc4)C3)cc2)c1 (stereo unspecified)	.	-2%	6%	?	.
O=C(CNC(=O)C1CCCCC1)OCC(=O)c1ccc([N+](=O)[O-])cc1	.	-2%	.	?	.
CC1CCCN(C(=O)N2c3ccccc3Sc3ccccc32)C1 (stereo unspecified)	14%	?	0%	16µM*	0%

The list goes on.
Structure	miR-21 FLuc	A549 tox	Nrf2 activator	Nrf2 inh	B2AR arrestin
CCN(CC)c1ccc(NC(=O)c2cnc3ccccn3c2=O)c(C)c1	-3%	-19%	0%	2.9µM*	0%
O=C(c1ccccc1)C1OC1C(=O)c1ccccc1 (stereo unspecified)	.	-10%	13µM*	?	.
Nc1c(C(=O)Nc2ccc(OC(F)(F)F)cc2)nnn1Cc1ccccc1	-4%	-9%	-1%	1%	.
CCc1cccc(C)c1NC(=O)CCn1c(=O)c2cccn2c2ccccc21	1%	-3%	7%	-23%	.
O=C(Nc1ccc2ccccc2n1)c1ccccc1Br	-35%	0%	11µM*	?	0%
O=C(Nc1ccc2ccccc2n1)c1ccccc1	-18%	-3%	11µM*	?	0%
O=C(Nc1ccccn1)c1ccc2ccccc2n1	-12%	1%	3.2µM*	?	5%
CCOC(=O)c1c(NC(=O)CSc2cn(CCNC(=O)c3ccc(OC)c(OC)c3)c3ccccc23)sc2c1CCC2	-5%	-13%	-1%	?	.

New compounds follow
Structure	miR-21 FLuc	A549 tox	Nrf2 activator	Nrf2 inh	B2AR arrestin
CCCN(c1ccccc1F)S(=O)(=O)c1ccc2c(c1)C(C)(C)C(=O)N2C	7%	-11%	5%	-29%	.
CC(=O)Nc1ccc(-c2csc(NC(=O)CC(NC(C)=O)c3ccccc3)n2)cc1 (stereo unspecified)	-3%	1%	0%	0%	-1%
CC(=O)NC(CC(=O)Nc1nc(-c2ccc(N(C)S(C)(=O)=O)cc2)cs1)c1ccccc1 (stereo unspecified)	?	-24%	4%	21µM*	0%
COc1cccc(NC(=O)Cn2nnc(-c3nc(-c4ccccc4)no3)c2N)c1	-33%	1%	7%	.	.
Clc1ccc(CNc2cc(-c3ccccc3)nc3nncn23)cc1	24%	2%	0%	-28%	.
CCc1c(C)nc2nncn2c1NCc1ccc(Cl)cc1	?	-17%	0%	8.2µM*	.
N#CC1=C(SCc2ccccc2)NC(=O)CC1c1ccc(O)cc1 (stereo unspecified)	2%	-1%	0%	-24%	0%
Cc1ccc(C2CC(=O)NC(SCc3ccccc3)=C2C#N)cc1 (stereo unspecified)	1%	2%	2%	10µM*	0%

The list continues.
Structure	miR-21 FLuc	A549 tox	Nrf2 activator	Nrf2 inh	B2AR arrestin
O=C1C(=Cc2ccco2)CCC1=Cc1ccco1	.	?	18%	-6%	.
O=C1C(=Cc2ccco2)CCCC1=Cc1ccco1	.	1%	3.2µM*	3%	.
CC(OCc1ccccc1)C(NC(=O)OC(C)(C)C)C(=O)NC1COC2CC(n3ccc(=O)[nH]c3=O)OC12 (stereo unspecified)	.	1%	.	6%	.
O=C(CCl)N(C1CCCC1)C1CCS(=O)(=O)C1 (stereo unspecified)	?	-9%	29%	21µM*	-1%
CC(=O)c1ccc(OCC(=O)N(C2CCCCC2)C2CCS(=O)(=O)C2)cc1 (stereo unspecified)	.	-11%	-1%	-1%	0%
O=C1c2ccccc2C(=O)N1c1ccccc1O	.	2%	.	-9%	.
O=C1C(NS(=O)(=O)c2ccccc2)=C(N2CCN(c3ccc(F)cc3)CC2)C(=O)c2ccccc21	1%	0%	0%	-21%	4%
O=C1C(NS(=O)(=O)c2cccs2)=C(N2CCN(c3cccc(Cl)c3)CC2)C(=O)c2ccccc21	-3%	?	9%	21µM*	0%

The listing continues:
Structure	miR-21 FLuc	A549 tox	Nrf2 activator	Nrf2 inh	B2AR arrestin
CCC(C)(C)C1CCc2[nH]nc(C(=O)NCCCNC(=O)OC(C)(C)C)c2C1 (stereo unspecified)	.	-10%	-1%	26µM*	-1%
O=S(=O)(c1ccccc1Br)N1CCN(c2nc(-c3cccs3)nc3ccccc23)CC1	.	2%	.	?	.
O=S(=O)(Nc1cccc2ncccc12)c1cccs1	?	?	?	21µM*	-1%
Cc1cccc2cc(CN(Cc3ccccc3)Cc3nnnn3Cc3ccccc3)c(=O)[nH]c12	.	-18%	.	?	.
Cc1ccccc1CCNC(=O)c1ccc2c(c1)nc1n2CCCCC1	19%	0%	-4%	.	.
CC(Cc1ccccc1)=NNc1ccc([N+](=O)[O-])cc1[N+](=O)[O-]	.	?	3%	23µM*	.
C/C(CC(C)C)=N/Nc1ccc([N+](=O)[O-])cc1[N+](=O)[O-]	-2%	-16%	2%	?	0%
O=C(Nc1ccc(Oc2c(F)c(F)c(F)c(F)c2F)cc1)OC1CCN2Cc3ccccc3N=C12 (stereo unspecified)	8%	21µM*	23%	23µM*	0%

(continued)
Structure	miR-21 FLuc	A549 tox	Nrf2 activator	Nrf2 inh	B2AR arrestin
Cc1cccc(NC(=O)Nc2ccc(Oc3c(F)c(F)c(F)c(F)c3F)cc2)c1	-1%	-4%	-1%	4%	0%
Cc1ccc(NC(=O)Cn2c(=O)n(CCCCC(=O)NCc3ccccc3Cl)c(=O)c3ccccc32)cc1C	-2%	-3%	-1%	5%	.
CS(=O)(=O)Nc1ccccc1C(=O)Nc1cccc(Cl)c1	10%	-3%	0%	?	0%
CS(=O)(=O)Nc1ccccc1C(=O)Nc1cc(Cl)cc(Cl)c1	3%	-24%	0%	13µM*	0%
CN(C(=O)C(C)(C)C)c1ccc(OCC(=O)N2CCc3ccccc3C2)cc1	24%	-1%	2%	10µM*	0%
Cc1ccc(OCC(=O)N2CCc3ccccc3C2)cc1	-26%	1%	1%	4%	-1%
Cc1ccc(S(=O)(=O)CCSc2nc(C)cc(C)c2C#N)cc1	-1%	-21%	4%	21µM*	0%

Screens as filed in PubChem.
